Laboratory results taken from PubChem BioAssay AID1224905 (ICCB-Longwood Screening Facility, Harvard Medical School, 2016).
The whole screen tested about 210,000 compounds, of which about 880 (0.42%) were called active. The entries come from a sample that favours actives as a whole. A number with no mark means an inactive call.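 The calls were made as follows: active = replicate mean at 85% of control or lower with very high polarization wells dropped (limit read from the data); inactive = the rest.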

Chains of the proteins cited; added tags and fusions are not shown.
UniProt P08753, whole entry, looked up: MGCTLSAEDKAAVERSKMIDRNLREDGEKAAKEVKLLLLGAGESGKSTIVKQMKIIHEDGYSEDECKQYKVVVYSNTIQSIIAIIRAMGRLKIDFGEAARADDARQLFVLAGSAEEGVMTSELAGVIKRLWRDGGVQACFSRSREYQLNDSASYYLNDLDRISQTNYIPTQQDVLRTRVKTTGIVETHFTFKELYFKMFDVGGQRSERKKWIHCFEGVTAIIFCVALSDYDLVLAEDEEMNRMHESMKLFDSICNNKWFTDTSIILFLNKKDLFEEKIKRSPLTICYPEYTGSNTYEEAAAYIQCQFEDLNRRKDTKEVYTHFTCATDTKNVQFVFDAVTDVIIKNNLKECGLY

The compounds below were run against Guanine nucleotide-binding protein G(i) subunit alpha-3 (Rattus norvegicus) (UniProt P08753) (assay: inhibitors of GIV peptide binding to Galpha-i3, primary screen, biochemical, fluorescence polarization, FITC-GIV GBA peptide, rat Galphai3 (AID 1224905;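 also: lower values mean more displacement of the GIV peptide from Galpha-i3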)). Conditions: 90 min, active compounds read low, scaled: aluminum fluoride 0%, vehicle 100%.
`COc1ccc(-c2ocnc2C(=O)O)cc1` gave a percent of control (FP) of 108%.
`COc1cccc(N=Nc2c(O)[nH]c(=O)[nH]c2=O)c1` was tested, and the percent of control (FP) was 100%.
For `COc1ccc(N=Nc2c(-c3ccc(OC)cc3)[nH]oc2=O)cc1`, the percent of control (FP) was 49% (active).
With `Cc1ccc(-c2nnc3ccccc3c2C(=O)Nc2ccc3c(c2)OCCO3)cc1` the percent of control (FP) was 101%.
`COC(=O)/C=C1\Nc2ccccc2SC1=O` showed a percent of control (FP) of 103%.
With `O=C1c2ccccc2S(=O)(=O)N1CC(O)COc1ccc2ccccc2c1` (stereo not given) the percent of control (FP) was 103%.
`Cn1c(=O)c(C(=O)NCCc2ccc(Cl)cc2)nc2ccccc21` showed a percent of control (FP) of 105%.
For `C/C(=N\c1nc2ccccc2n1C)c1cc(Cl)ccc1O`, the percent of control (FP) was 49.3% (active).
Work on `Cn1c(NC(=O)c2ccccc2)nc2ccccc21` yielded a percent of control (FP) of 97.8%.
Work on `Cn1cc(C(=O)Nc2ccc(Br)cc2)c2[nH]c(=O)n(-c3ccccc3)c(=O)c21` yielded a percent of control (FP) of 101%.
In the case of `COc1ccc(NC(=O)c2nn(C)c3c2CSc2ccc(Cl)cc2-3)cc1OC`, the percent of control (FP) is reported as 102%.
For `COc1ccc(NC(=O)C2CCN(S(=O)(=O)c3cc4c(cc3C)NC(=O)CO4)CC2)cc1OC`, the percent of control (FP) was 98%.
With `O=S(=O)(c1ccccc1Cl)N1CCN(c2ncnc3c2nnn3-c2ccc(F)cc2)CC1` the percent of control (FP) was 98.7%.
For `Cc1cc(C)c2c(N)c(-c3n[nH]c(=S)n3C)sc2n1`, the percent of control (FP) was -53.5% (active).
In the case of `COc1ccc(-c2cc(-c3nc4c5sc6nc(C)cc(C)c6c5ncn4n3)[nH]n2)cc1`, the percent of control (FP) is reported as 102%.
`Cc1cc(C)c2c(n1)sc1c(=O)n(C)cnc12` showed a percent of control (FP) of 103%.
`Cc1ccc(N2C(=O)C3C4c5ccccc5C(C=O)(c5ccccc54)C3C2=O)c(Br)c1` (stereo not given) was tested, and the percent of control (FP) was 123%.
In the case of `COCCNC(=O)c1ccccc1NC(=O)c1ccc(F)cc1`, the percent of control (FP) is reported as 104%.
`COC(=O)CN1C(c2ccccc2)=Nc2ccc(Br)cc2C1c1ccccc1` (stereo not given) showed a percent of control (FP) of 107%.
Compound `COc1ccc(CNS(=O)(=O)c2ccc(F)c(C(=O)Nc3ccc(Br)cc3F)c2)cc1` has a percent of control (FP) of 111%.
In the case of `N#C/C(=C/c1ccc(N2CCCCC2)o1)C(=O)NCCc1c[nH]c2ccccc12`, the percent of control (FP) is reported as -90.3% (active).
With `Cc1nn(CC(=O)NCCc2c[nH]c3ccccc23)c(=O)c2noc(C)c12` the percent of control (FP) was 98.7%.
Work on `O=C(NCCc1c[nH]c2ccccc12)c1cc(=O)nc2sc(N3CCCC3)nn12` yielded a percent of control (FP) of 106%.
For `CCCCN(CC)c1ncnc2ccc(C)cc12`, the percent of control (FP) was 101%.
`N#CC(C#N)=Cc1ccc(-c2cccc(C(=O)O)c2)o1` showed a percent of control (FP) of 102%.
With `Cc1ccc2nc(/C(C#N)=C/c3ccccc3F)[nH]c2c1` the percent of control (FP) was 113%.
`Cc1ccc2nc(/C(C#N)=C/c3ccc(-c4ccc(C(=O)OC(C)C)cc4)o3)[nH]c2c1` was tested, and the percent of control (FP) was -57.6% (active).
`O=C(OCCN1CCCCC1)C1COc2ccccc2O1` (stereo not given) showed a percent of control (FP) of 102%.
Compound `CC1CN(S(=O)(=O)c2ccc3c4c(cccc24)C(=O)N3)CC(C)O1` (stereo not given) has a percent of control (FP) of 96.8%.
In the case of `Nc1ccc2c3c(cccc13)C(=O)NC2=O`, the percent of control (FP) is reported as -7.99% (active).
Compound `CN(Cc1ccccc1)S(=O)(=O)c1ccc2c3c(cccc13)C(=O)N2` has a percent of control (FP) of 104%.
With `C#CCSc1c(CCCC)cnc2c1c(=O)n(C)c(=O)n2C` the percent of control (FP) was 106%.
`COC(CNC(=O)c1cn(C)c2ccc(S(=O)(=O)N3CCCC3)cc2c1=O)OC` showed a percent of control (FP) of 106%.
With `CCOc1ccc(/C(O)=C2/C(=O)C(=O)N(CCN3CCOCC3)C23C(=O)N(C)c2ccccc23)cc1` (stereo not given) the percent of control (FP) was 107%.
`Cc1cc(Br)ccc1NC(=O)Cn1c2ccccc2c(=O)c2ccccc21` showed a percent of control (FP) of 99.8%.
`CCN1C(=O)c2cccc3c(S(=O)(=O)N4CCc5ccccc54)ccc1c23` showed a percent of control (FP) of 101%.
For `CCN1C(=O)c2cccc3c(NC(=S)NC(=O)c4ccccc4)ccc1c23`, the percent of control (FP) was -23.8% (active).
`CCN1C(=O)c2cccc3c(S(=O)(=O)N4CCN(CCO)CC4)ccc1c23` gave a percent of control (FP) of 108%.
For `Cc1cc(C)n(C(=O)c2sccc2S(=O)(=O)N(C)c2ccc(C)c(Cl)c2)n1`, the percent of control (FP) was 95.4%.
With `O=C(NCC(c1ccccc1Cl)N1CCCC1)c1cc(-c2ccccc2)on1` (stereo not given) the percent of control (FP) was 113%.
